Measured values from PubChem BioAssay AID640 (Columbia University Molecular Screening Center, 2007).
Only a part is listed here, and it is no random draw. Calls of active or inactive are those of the source.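 Rule for the calls: active = inhibition at 2 µM at or above a set limit, the screen mean plus 3 SD (cut at about 24% in these data); inactive = the rest.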

Protein sequences, listed by entry. Tags and fused reporters are not part of them.
UniProt Q9Y2R2, whole entry: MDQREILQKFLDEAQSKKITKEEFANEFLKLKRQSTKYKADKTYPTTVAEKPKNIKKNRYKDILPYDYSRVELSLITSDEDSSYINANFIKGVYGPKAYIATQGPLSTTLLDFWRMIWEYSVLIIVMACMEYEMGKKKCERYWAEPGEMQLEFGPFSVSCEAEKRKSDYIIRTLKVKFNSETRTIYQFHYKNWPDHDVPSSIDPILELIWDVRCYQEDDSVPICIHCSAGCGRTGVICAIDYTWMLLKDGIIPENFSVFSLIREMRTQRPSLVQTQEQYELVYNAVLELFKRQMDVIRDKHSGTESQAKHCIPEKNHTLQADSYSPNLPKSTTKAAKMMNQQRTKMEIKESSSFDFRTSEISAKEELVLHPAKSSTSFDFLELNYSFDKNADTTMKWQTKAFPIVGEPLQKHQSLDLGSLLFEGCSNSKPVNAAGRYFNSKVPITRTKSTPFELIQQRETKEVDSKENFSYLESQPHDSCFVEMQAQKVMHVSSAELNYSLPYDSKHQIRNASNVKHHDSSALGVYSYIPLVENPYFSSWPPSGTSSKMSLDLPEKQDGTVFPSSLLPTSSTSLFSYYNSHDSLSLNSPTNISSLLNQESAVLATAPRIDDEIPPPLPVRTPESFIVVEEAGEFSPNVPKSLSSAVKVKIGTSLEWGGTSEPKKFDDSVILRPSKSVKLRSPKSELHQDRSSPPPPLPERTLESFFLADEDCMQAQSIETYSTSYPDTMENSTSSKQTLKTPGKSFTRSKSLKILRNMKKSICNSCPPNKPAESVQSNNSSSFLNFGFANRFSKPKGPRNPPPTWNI

target: Tyrosine-protein phosphatase non-receptor type 22 (Homo sapiens) (UniProt Q9Y2R2); experiment: PTPN22 phosphatase inhibitors, primary screen, biochemical, DiFMUP fluorescence, 2 µM (AID 640); details: recombinant LYP catalytic domain, at 2 µM, stronger effect = higher value;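 note: 0% = DMSO with enzyme and 100% = enzyme fully blocked by orthovanadate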

Compound | inhibition
CCOc1ncccc1C(=O)NCC1(N2CCOCC2)CCCCC1 | inactive: -2.3%
CCC(CO)(C(=O)OC1CN2CCC1CC2)c1ccccc1 (stereo not given) | inactive: 0.6%
N/C(=N\O)c1c(N)no[n+]1[O-] | inactive: -5.8%
c1ccc(CN2CCC(Nc3ccccc3)CC2)cc1 | inactive: 13%
N#CC1(Nc2ccccc2)CCN(CCc2ccccc2)CC1 | inactive: -1.3%
O=C(NCC1(N2CCOCC2)CCCCC1)c1cc(=O)[nH]c2ccccc12 | inactive: 4%
CN1CCC(Nc2cccc(F)c2)CC1 | inactive: 0.2%
O=C(NCC1(N2CCOCC2)CCCCC1)c1cc2ccccc2o1 | inactive: 9.1%
O=C(OC1CN2CCC1CC2)C1c2ccccc2Oc2ccccc21 (stereo not given) | inactive: -6.6%
COc1ccc(NC2CCN(CCc3ccccc3)CC2)c(OC)c1 | inactive: 3%
